According to article PMC4148842, “The Recognition of Collagen and Triple-helical Toolkit Peptides by MMP-13” (The Journal of Biological Chemistry, 2014):

Molecular target: MMP-13 (Homo sapiens, UniProt P45452)
Experiment: MMP-13 Toolkit solid-phase binding assay (SPBA), wild type active MMP-13
Design: made in house; host or cells: mouse myeloma cells
Details: wild type MMP-13 on collagen-coated wells, four experiments, differences not significant
Description: Recombinant proMMP-13 was expressed and purified as previously described ([18]). Where required, proMMP-13 was activated to yield MMP-13 by incubation in 1 mM 4-amino-phenylmercuric acetate (APMA) for 1 h at 37 °C. ProMMP-13(E204A) was expressed in Escherichia coli BL21(DE3), refolded, purified, and activated essentially as described for proMMP-1(E200A) ([19], [20]). The Cat domain of MMP-13 (Δ249–451) was expressed and purified from NSO mouse myeloma cells as previously described ([12]). […]
Immulon 2 HB 96-well plates (Nunc, Langenselbold, Germany) were coated with Collagen Toolkit or other peptides, fibrillar or monomeric collagen at a saturating concentration (10 μg/ml in 0.01 M acetic acid) overnight at 4 °C. […] Rabbit anti-MMP-13, raised against MMP-13 hinge region (Abcam, Cambridge, UK), and goat anti-rabbit HRP (Dako, Ely, UK) were added at a dilution of 1:2000 in adhesion buffer prior to the addition of TMB substrate system (Sigma), and the plates read at 450 nm. […] To confirm affinity of the anti-hinge antibody for MMP-13 and MMP-13(E204A), increasing concentrations of MMP were coated onto an ELISA plate prior to blocking and detected as previously described. Binding curves were fitted using Prism 5.0 software (GraphPad, San Diego), allowing total binding (Bmax) and equilibrium dissociation constant (KD) to be determined. […]

Row | Substance | Kd
1 | fibrillar type I collagen: Fibrous bovine type I collagen, a gift from Ethicon Corporation | 33 nM
2 | monomeric type I collagen: Monomeric collagen obtained from Devro (Bathurst, Australia) | 118 nM
